We go through one compound from patent US8293724B2, “Therapeutic applications of fatty acid amide hydrolase inhibitors” (The United States of America, as represented by the …, priority 2007, dated 2012).

Protein sequences, listed by entry. Tags and fused reporters are not part of them.
UniProt O08914, whole entry: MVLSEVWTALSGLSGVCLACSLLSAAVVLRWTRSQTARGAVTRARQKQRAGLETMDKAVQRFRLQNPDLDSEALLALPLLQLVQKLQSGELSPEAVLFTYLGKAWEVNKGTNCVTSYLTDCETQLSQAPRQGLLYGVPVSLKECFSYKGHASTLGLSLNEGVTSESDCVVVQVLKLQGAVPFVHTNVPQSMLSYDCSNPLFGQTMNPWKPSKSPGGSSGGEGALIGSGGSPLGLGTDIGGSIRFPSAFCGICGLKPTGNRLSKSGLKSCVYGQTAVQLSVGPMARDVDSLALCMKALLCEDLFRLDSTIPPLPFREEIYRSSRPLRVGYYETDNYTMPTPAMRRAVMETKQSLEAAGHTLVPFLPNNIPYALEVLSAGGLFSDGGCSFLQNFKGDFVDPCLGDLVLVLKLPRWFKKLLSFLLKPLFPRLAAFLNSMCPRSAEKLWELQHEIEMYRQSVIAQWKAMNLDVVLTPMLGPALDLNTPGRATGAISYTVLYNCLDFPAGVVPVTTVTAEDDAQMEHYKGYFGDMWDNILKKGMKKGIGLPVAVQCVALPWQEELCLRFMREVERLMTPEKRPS

As usually defined, the inhibition is the share of the control response that was lost under treatment.

This assay concerns the target T1, FAAH (Mus musculus, UniProt O08914).
T1 construct: the brain and liver removed, and tissue homogenates prepared as described above; from tissue; host or cells: mouse brain and liver homogenates after in vivo dosing
Kind of assay: FAAH activity in brain and liver homogenates following in vivo administration. Also on record: species or system mice. As to conditions: read-out: inhibition of FAAH in the liver. How it is done: For the experiments illustrated in FIG. 3, FAAH activity was assessed through a different method not requiring TLC separation, as described by Jonsson et al: Br. J. Pharmacol. 133:1263-1275, 1997. […] The mice were sacrificed one hour later, the brain and liver removed, and tissue homogenates prepared as described above. [^3H]Anandamide labeled on the ethanolamide moiety was added to the homogenate and incubated at 37° C. for 10 min. The homogenate was then extracted twice with chloroform:methanol 1:1 and the radioactivity in the aqueous phase (containing the released ethanolamide) was counted.

Regarding `O=S(=O)(F)CCCCCc1ccc(O)cc1` [AM3506], the inhibition at 0.3 mg/kg stood at 0%.
